Source: patent US7829520B1, “Aqueous based chemical and biological warfare decontaminating system for extreme temperature applications” (dated 2010)

Columns and labels:
[1] = Decontamination efficiency of 0.3 M PAA against chemical agent GD in mixed sulfonate μEM; settings: 0.1 M GD
[2] = Decontamination efficiency of 0.3 M PAA against chemical agent HD in mixed sulfonate μEM; settings: 0.1 M HD
[3] = mixed sulfonate μEM pH = 10, reaction time 0 min
[4] = mixed sulfonate μEM pH = 10, reaction time 15 min
[5] = mixed sulfonate μEM pH = 10, reaction time 30 min
[6] = mixed sulfonate μEM pH = 10, reaction time 60 min

## CC(=O)OO
[1]; [3]
  Percent CA Neutralized: 0.00%
[1]; [4]
  Percent CA Neutralized: 99.99%
[1]; [5]
  Percent CA Neutralized: 99.99%
[1]; [6]
  Percent CA Neutralized: 99.99%
[2]; [3]
  Percent CA Neutralized: 0.00%
[2]; [4]
  Percent CA Neutralized: 98.21%
[2]; [5]
  Percent CA Neutralized: 98.31%
[2]; [6]
  Percent CA Neutralized: 99.15%
